Like-named read-outs stand apart in the source and are kept apart here.
Molecular target: Pim-1 kinase (Homo sapiens, UniProt P11309)
Experiment: Pim-1 kinase inhibition assay (Promega Kinase-Glo)
Format: biochemical

The chains behind the UniProt entries cited, without tags or fusion partners.
UniProt P11309, whole entry: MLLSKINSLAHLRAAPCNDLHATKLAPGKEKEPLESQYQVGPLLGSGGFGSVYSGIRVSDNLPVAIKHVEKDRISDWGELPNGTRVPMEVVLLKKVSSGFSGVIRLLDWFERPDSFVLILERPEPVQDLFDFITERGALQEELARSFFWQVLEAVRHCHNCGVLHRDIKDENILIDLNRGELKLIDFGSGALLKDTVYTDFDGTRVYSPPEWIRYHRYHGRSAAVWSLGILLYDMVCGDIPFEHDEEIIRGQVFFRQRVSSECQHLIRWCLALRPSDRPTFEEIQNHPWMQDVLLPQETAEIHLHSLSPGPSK

| SMILES | IC50 [nM] | further results |
| --- | --- | --- |
| CS(=O)(=O)N[C@H]1CC[C@H](Nc2ccc3ncc(-c4cccc(Cl)c4)n3n2)CC1 [8-80] |  | IC50 (Table IV, Kinase-Glo, 10uM ATP, read-out: IC50 on Pim1): 52 nM |
| CO[C@H]1CC[C@H](Nc2ccc3nnc(-c4cccc(C(F)(F)F)c4)n3c2)CC1 [8-106, 4-(trans-Methoxycyclohexy/)-3-(3-(trifluoromethyl)phenyl)-[1,2,4]triazolo[4,3-a]pyridin-6-amine] |  | IC50 (Table V, Kinase-Glo, 10uM ATP, read-out: IC50 on Pim1): 518 nM |
| CN1CCC(O)(CNc2ccc3ncc(-c4cccc(OC(F)(F)F)c4)n3n2)CC1 [8-22, 1-Methyl-4-(((3-(3-(trifluoromethoxy)phenyl)imidazo[1,2-b]pyridazin-6-yl)amino)methyl)piperidin-4-ol] | 41 |  |
| O[C@H]1CC[C@H](Nc2ccn3ncc(-c4cccc(Cl)c4)c3n2)CC1 [8-61, 4-((3-(3-Chlorophenyl)pyrazolo[1,5-a]pyrimidin-5-yl)amino)-trans-cyclohexanol] | 237 |  |

Reference: patent publication EP3409278B1, “HETEROCYCLIC PROTEIN KINASE INHIBITORS” (Tolero Pharmaceuticals, Inc., priority 2011, dated 2013)
